The record followed here is paper PMC12116762, “Topobexin targets the Topoisomerase II ATPase domain for beta isoform-selective inhibition and anthracycline cardioprotection” (Nature Communications, 2025).

The chains behind the UniProt entries cited, without tags or fusion partners. Residues count along the entry.
UniProt Q02880, 2-1626 limits assumed: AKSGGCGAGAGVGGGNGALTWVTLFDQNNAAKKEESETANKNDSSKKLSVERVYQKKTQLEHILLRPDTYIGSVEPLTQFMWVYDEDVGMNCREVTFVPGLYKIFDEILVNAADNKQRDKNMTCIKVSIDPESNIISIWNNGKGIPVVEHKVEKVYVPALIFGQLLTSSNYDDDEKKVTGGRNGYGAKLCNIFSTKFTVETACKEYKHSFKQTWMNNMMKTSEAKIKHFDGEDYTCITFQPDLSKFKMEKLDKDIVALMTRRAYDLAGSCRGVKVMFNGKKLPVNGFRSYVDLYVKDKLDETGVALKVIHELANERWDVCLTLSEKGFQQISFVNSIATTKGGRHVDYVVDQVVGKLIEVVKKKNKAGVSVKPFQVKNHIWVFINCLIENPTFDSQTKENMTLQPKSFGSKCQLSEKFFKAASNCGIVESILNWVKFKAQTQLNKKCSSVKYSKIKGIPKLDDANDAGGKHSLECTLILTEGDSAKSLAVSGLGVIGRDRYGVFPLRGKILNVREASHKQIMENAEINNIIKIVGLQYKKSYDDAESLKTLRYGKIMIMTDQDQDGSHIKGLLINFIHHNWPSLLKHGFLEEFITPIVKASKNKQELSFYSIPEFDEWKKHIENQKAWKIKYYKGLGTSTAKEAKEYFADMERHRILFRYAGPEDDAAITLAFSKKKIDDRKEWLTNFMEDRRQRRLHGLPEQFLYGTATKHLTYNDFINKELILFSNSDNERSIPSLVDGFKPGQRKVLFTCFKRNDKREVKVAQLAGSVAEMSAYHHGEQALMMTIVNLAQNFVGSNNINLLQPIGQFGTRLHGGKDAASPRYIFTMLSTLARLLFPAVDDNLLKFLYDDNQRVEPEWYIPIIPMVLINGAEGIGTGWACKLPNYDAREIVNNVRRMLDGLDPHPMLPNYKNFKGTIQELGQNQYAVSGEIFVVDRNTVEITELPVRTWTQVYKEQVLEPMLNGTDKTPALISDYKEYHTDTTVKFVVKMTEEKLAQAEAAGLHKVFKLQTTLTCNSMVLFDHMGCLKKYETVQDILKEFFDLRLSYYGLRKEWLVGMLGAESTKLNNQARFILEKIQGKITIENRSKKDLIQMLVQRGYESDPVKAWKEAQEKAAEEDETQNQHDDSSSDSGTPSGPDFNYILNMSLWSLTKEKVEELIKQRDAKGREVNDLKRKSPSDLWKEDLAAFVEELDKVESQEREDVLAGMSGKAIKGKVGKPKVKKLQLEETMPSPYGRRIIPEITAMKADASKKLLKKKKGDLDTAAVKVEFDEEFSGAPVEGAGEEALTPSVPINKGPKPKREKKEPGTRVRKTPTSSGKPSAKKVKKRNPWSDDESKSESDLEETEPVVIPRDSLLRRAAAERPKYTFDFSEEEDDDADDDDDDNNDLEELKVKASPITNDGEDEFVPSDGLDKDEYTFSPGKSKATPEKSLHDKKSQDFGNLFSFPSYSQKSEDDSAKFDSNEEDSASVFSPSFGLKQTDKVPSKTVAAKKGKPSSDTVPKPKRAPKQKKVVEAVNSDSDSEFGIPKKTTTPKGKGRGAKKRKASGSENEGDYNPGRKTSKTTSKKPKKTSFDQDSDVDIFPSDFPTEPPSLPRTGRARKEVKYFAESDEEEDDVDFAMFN

For this test, the target named is T1, TOP2B-DNA covalent complex (Homo sapiens, UniProt Q02880).
T1 construct: endogenous in cells; host or cells: HEK293F
In words: RADAR assay, etoposide-induced TOP2B-DNA covalent complex in HEK293F cells. As to conditions: etoposide 5 μM alone; independent replicates. It counts as cell-based. As for the experimental part: HEK293F cells were plated at 3 × 10^5 cells per well and grown overnight. The next day the wells were incubated with the indicated concentration combinations of topobexin (9) for 30 min followed by etoposide or DMSO control for 60 min (1:1000 ratio for drug dilution). Upon removal of media, cells in each well were immediately lysed with 750 µL DNAzol (Molecular Research Center, Inc.) and the DNA was precipitated by addition of 375 µL of 100% ethanol. This step was then repeated to eliminate protein aggregates. Precipitate from each sample was pelleted via centrifugation at 4 °C and max speed for 5 min. […] The DNA content from each sample was quantified on a nanodrop, and 10 µg of DNA was diluted to a final volume of 200 µL in 8 mM NaOH and 0.1% Tween. […] Western blotting was carried out on an iBind (Thermo Fisher Scientific) and TOP2 proteins were detected using isoform-specific antibody against full length TOP2A (1:250 dilution; HT2A21, Inspiralis) and TOP2B (1:500 dilution; 611493, BD Biosciences) and visualized with anti-rabbit (1:1000 dilution; 926-68071, LI-COR Bio) and anti-mouse (1:1000 dilution; 926-32210, LI-COR Bio) secondary antibodies in iBind running buffer. The blots were imaged on a LI-COR Odyssey Fc and analysed using ImageStudio. […]

The structures appear in SMILES notation.

Regarding `COc1cc([C@@H]2c3cc4c(cc3[C@@H](O[C@@H]3O[C@@H]5CO[C@@H](C)O[C@H]5[C@H](O)[C@H]3O)[C@H]3COC(=O)[C@H]23)OCO4)cc(OC)c1O` [etoposide, reference compound], the TOP2B spot intensity amounted to 127.6.
